Activity calls are given as the source filed them. The rule behind the calls is not given here.
What was measured:
[1] = target: Kappa-type opioid receptor (Cavia porcellus) (UniProt P41144); experiment: Agonist activity at kappa opioid receptor in guinea pig ileum assessed as inhibition of electrically-stimulated muscle contraction in presence of MOR antagonist CTAP
[2] = target: Kappa-type opioid receptor (Cavia porcellus) (UniProt P41144); experiment: Agonist activity at kappa opioid receptor in guinea pig ileum assessed as inhibition of electrically-stimulated muscle contraction in presence of KOR antagonist norBNI

The chains behind the UniProt entries cited, without tags or fusion partners. Where a name states a change or a piece, a line headed by the entry shows the natural chain unless it says otherwise.
UniProt P41144: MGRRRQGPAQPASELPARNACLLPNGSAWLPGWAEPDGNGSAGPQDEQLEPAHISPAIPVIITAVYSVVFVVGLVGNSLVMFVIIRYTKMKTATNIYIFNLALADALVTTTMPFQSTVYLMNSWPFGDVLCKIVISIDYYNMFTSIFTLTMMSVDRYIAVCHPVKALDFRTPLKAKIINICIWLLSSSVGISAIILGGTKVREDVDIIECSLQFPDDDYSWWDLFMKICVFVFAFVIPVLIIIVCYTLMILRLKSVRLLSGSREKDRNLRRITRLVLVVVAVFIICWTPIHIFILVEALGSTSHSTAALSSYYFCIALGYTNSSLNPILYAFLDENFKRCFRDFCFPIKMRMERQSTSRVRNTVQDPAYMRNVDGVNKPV

CO[C@@]12CC[C@@]3(C[C@@H]1[C@](C)(O)C(C)(C)C)[C@H]1Cc4ccc(O)c5c4[C@@]3(CCN1CC1CC1)[C@H]2O5
Activity [1]: Active | Activity [2]: Active | Ke [2]: 1.8 nM

Source: ChEMBL document CHEMBL2331145, “Orvinols with mixed kappa/mu opioid receptor agonist activity” (2013)
